The target in the assay is T1, OT receptor (Rattus norvegicus, UniProt P70536).
T1 construct: OT receptors from rat uterine strips for our receptor activity assays; from tissue; host or cells: uterine strips of female Wistar rats
T1 sequence (P70536 1-388): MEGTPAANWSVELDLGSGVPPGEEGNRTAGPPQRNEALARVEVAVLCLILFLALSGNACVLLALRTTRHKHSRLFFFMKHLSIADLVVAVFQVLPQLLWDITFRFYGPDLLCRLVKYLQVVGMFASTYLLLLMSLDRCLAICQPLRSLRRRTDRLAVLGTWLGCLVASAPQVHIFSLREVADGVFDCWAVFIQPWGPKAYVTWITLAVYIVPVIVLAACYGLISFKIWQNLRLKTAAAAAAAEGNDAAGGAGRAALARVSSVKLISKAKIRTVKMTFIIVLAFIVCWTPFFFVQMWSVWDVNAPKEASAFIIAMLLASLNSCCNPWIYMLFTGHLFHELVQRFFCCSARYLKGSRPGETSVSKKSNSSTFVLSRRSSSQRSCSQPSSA
Description: OT induced contractions of isolated uterine strips (organ bath).

atosiban [reference compound]: the “effect on OT induced contractions” value (100 nm of inhibitor) is on record as “shifted the OT induced contraction-concentration curve to the right”. In addition, the “nature of antagonism at the OT receptor” value (from double reciprocal plots) was “competitive antagonist”. Further, the “1/Rmax of double reciprocal plot (1/R vs 1/[OT])” value (inhibitor 100 nM, Rmax = maximum contractile response in cm) was 0.47.
